# Target: T1, human CYP3A4 (Homo sapiens, UniProt P08684)
# By UniProt entry, the sequences of proteins in these tests, tags left out.
# UniProt P08684, whole entry: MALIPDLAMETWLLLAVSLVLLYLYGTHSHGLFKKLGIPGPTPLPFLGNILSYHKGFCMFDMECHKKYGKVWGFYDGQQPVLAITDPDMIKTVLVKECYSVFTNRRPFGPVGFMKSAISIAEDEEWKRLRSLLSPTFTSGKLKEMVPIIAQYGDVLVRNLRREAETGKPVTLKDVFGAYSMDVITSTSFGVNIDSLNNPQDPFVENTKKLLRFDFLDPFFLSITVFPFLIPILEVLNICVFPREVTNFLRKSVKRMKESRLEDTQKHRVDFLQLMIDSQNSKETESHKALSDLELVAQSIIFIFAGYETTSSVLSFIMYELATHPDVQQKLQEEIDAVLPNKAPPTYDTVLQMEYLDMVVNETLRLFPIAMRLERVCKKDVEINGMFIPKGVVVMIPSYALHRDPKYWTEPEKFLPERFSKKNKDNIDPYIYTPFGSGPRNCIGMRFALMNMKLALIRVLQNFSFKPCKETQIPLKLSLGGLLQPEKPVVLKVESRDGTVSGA
# T1 construct: purchased GENTEST
# Experiment: Assay of human CYP3A4-inhibitory activity
# Assay type: biochemical
# Conditions: testosterone 100 μM, human CYP3A4 10 pmol/ml, 37° C., 30 min; read-out: IC50 (CYP3A4 inhibition, 6β-hydroxytestosterone production)
# Procedure: Assay of Human CYP3A4-Inhibitory Activity
# Performed as in the following according to Journal of Biological Chemistry, vol. 256, 11937 (1983).
# A phosphate buffer solution (50 mM, pH 7.4) containing testosterone (final concentration 100 μM, hereinafter the same), human CYP3A4 (10 pmol/ml, manufactured by GENTEST), NADPH producing system (0.5 mM NADP, 5 mM glucose-6-phosphate, 5 mM magnesium chloride, 1.5 units/ml glucose-6-phosphate dehydrogenase) and the test compound was incubated at 37° C. for 30 min. Acetonitrile was added to the reaction mixture and the mixture was stirred and centrifuged. The 6β-hydroxytestosterone in the obtained supernatant was analyzed by high performance liquid chromatography.
substance,measurement,value
"6-(6,7-dihydro-5H-pyrrolo[1,2-c]imidazol-7-yl)-N-methyl-2-naphthamide [Reference Example 11, reference compound]",IC50,< 1000 nM
